According to ChEMBL document CHEMBL5512644 (Eur J Med Chem, 2024):

Species on record: Homo sapiens
Experiment: Selectivity ratio of Ki for displacement of [3H]-EYF from monoclonal human NPFF2 receptor expressed in CHO cells to Ki for displacement of [3H]NPVF from monoclonal human NPFF1 receptor expressed in CHO cells

Q: `O=C(CN1CCC(Cc2ccccc2)CC1)NCC1(Nc2cccc3ccccc23)CCN(Cc2ccccc2)CC1` was tested. Which Ratio Ki did it give?
A: > 15
